The source of these data is ChEMBL document CHEMBL5385848, “Discovery of novel hydroxyamidine based indoleamine 2,3-dioxygenase 1 (IDO1) and thioredoxin reductase 1 (TrxR1) dual inhibitors” (Eur J Med Chem, 2023).

Amino acid sequences for entries named in this document (tags omitted). A change or cut given only in a name is not applied to a line headed by its entry.
UniProt P48775: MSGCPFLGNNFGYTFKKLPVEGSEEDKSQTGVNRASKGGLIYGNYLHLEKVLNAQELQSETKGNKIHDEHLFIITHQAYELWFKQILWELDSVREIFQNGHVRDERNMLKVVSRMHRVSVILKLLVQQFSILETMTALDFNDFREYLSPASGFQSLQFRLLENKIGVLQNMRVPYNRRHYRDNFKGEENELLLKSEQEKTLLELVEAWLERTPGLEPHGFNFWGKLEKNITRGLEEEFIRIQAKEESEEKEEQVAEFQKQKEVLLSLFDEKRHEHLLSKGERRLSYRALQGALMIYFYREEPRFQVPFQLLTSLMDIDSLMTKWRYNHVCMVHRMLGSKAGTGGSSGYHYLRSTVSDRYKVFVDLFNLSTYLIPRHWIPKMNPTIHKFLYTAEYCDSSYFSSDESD

The target in this test is Tryptophan 2,3-dioxygenase (Homo sapiens, UniProt P48775). The test is described as follows: Inhibition of TDO (unknown origin) using L-Trp as substrate incubated for 75 mins.

With `Fc1ccc2c(/C=C/c3cccnc3)c[nH]c2c1`, inhibition was half-maximal at 410 nM (IC50).
